The source of these data is article PMC2765529 (Journal of medicinal chemistry, 2009).

By UniProt entry, the sequences of proteins in these tests, tags left out.
UniProt Q60492, whole entry: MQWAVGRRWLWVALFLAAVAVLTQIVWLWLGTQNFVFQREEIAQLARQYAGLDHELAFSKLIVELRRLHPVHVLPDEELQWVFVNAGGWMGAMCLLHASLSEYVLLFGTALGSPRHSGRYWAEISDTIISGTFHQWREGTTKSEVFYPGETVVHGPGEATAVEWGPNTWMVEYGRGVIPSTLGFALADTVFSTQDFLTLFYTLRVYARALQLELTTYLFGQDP

Broadly, the Ki is the dissociation constant of the complex between target and ligand, obtained from inhibition or displacement.

In the assay the target is σ1 receptor (Cavia porcellus, UniProt Q60492). Description: σ1 receptor binding, [^3H]. Conditions: σ1 (Ki [nM]), guinea pig brain membranes; mean ± SEM.

With `O=C(c1ccc(F)cc1)C1CCN([C@@H]2Cc3ccccc3C[C@H]2O)CC1` (single isomer, unassigned) [(-)-9e], the Ki came to 659 ± 118 nM.
